High-throughput results: PubChem BioAssay, several laboratories
Yeast UUG start – alters start codon recognition fidelity in yeast. S. cerevisiae UUG-firefly luciferase reporter, luminescence/redox ratio. activity score, % at 18.7 µM. 0.13% of 350,000 active. AID 602363;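 active = replicate mean at a twofold rise or more, about +100% in these data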;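 also: firefly luciferase made from a UUG start codon reports start codon fidelity; reporter light over untreated wells divided by growth signal over untreated wells; some hits fall short of that in this replicate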
ALR H2O2 inh – inhibitors of human ALR sulfhydryl oxidase, primary screen, biochemical, H2O2 detection, HRP-luminol luminescence, single point | AID 485317, 2010 | inhibition, % (test concentration not listed) | purified ALR, DTT oxidation | FAD-linked sulfhydryl oxidase ALR (Homo sapiens), P55789 | hit rate 3.8% among 290,000;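 active = mean and each replicate at 75% or more; inconclusive = only one of the two met; inactive = neither met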;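 also: stock transfer was 7.5 nL into about 7.5 µL; 0% = neutral wells and 100% = wells with inactivated enzyme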
MC4R barr agon – MC4R agonists recruiting beta-arrestin, primary screen, cell-based, luminescence, agonist arm of biased-ligand search | AID 540308, 2011 | hit rate 0.98% among 360,000 | U2OS MC4R beta-arrestin complementation; percent of melanotan II response, DMSO zero | Melanocortin receptor 4 (Homo sapiens), P32245 | activation, % at 8.9 µM;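 active = activation above a per-plate cutoff, the mean activation of sample wells on that plate plus 3 SD, cut at about 8% in these data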
NALP1 yeast inh – NALP1 inflammasome inhibitors in reconstituted yeast, colorimetric, S. cerevisiae, triplicate retest. S. cerevisiae NALP1/ASC/caspase-1 growth, X-gal OD620, 72 h. inhibition, % at 10 µM. hit rate 0.61% among 280,000; in the data active = inhibition mostly above about 24%, no sharp cut-off; inactive = mostly below about 32%
MC4R antagonist – MC4R antagonists of cAMP signaling, primary screen, cell-based, TR-FRET, antagonist arm of biased-ligand search; MC4R-expressing cells, MTII-stimulated cAMP, LANCE TR-FRET; inhibition, % at 6.5 µM; hit rate 0.48% among 360,000; AID 540295, 2011;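 active = inhibition above its plate's cutoff, the mean of tested wells on that plate plus 3 SD, cut at about 29% in these data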;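 note: 0% = Melanotan II alone and 100% = Melanotan II plus saturating MCL0020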
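Material – human MC4R-expressing U2OS cells · Repeats – no replicates · Detection – TR-FRET with Eu-cAMP and labeled anti-cAMP, 671 nm · Times – compound 30 min, challenge 1 h, detection 1 h · Compound – single nominal compound dose of 6.5 µM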
HDAC3 inhib – HDAC3 deacetylase inhibitors, primary screen, biochemical, fluorescence, cell-free homogeneous | recombinant HDAC3, fluorogenic peptide/trypsin coupled | inhibition, % at 8.3 µM | hit rate 0.15% among 320,000; in the data active = inhibition above about 26%, passing the limit was not always enough; inconclusive = no clear call, values can overlap the other calls
An asterisk follows results filed as active. A selection: hits, their analogues and other compounds. The true share with any hit is near 4.2%.

Protein sequences, listed by entry. Tags and fused reporters are not part of them.
Melanocortin receptor 4 (Homo sapiens), P32245, UniProt P32245, whole entry, looked up: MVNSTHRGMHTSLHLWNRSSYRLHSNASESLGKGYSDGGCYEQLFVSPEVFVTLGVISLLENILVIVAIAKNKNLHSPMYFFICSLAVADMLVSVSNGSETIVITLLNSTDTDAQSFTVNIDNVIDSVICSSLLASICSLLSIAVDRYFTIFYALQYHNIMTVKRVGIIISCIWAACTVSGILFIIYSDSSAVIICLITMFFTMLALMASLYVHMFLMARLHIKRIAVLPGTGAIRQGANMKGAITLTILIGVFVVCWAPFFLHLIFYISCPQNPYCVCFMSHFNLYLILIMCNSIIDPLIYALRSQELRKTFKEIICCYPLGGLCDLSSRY

O=C(CS(=O)c1ccccc1[N+](=O)[O-])Oc1ccc(Br)cc1 (stereo unspecified) was read as ALR H2O2 inh 78*, MC4R barr agon -2, NALP1 yeast inh 14, MC4R antagonist 22 and HDAC3 inhib 0.
For CN1c2ccc(-c3ccc(C#N)cc3)cc2[C@@H]2[C@@H](CCN2C(=O)Nc2cccc(F)c2)[C@@H]1CO the results were Yeast UUG start -9.
For NC(=Nc1ccc(N)cc1)C(N)=Nc1ccc(N)cc1 the results were ALR H2O2 inh 99*, MC4R barr agon 0, NALP1 yeast inh 6, MC4R antagonist 1 and HDAC3 inhib 2.
For COc1ccccc1C(C[N+](=O)[O-])c1c(N)n(C)c(=O)n(C)c1=O (stereo unspecified) the results were Yeast UUG start -29, ALR H2O2 inh 6, MC4R barr agon 2, NALP1 yeast inh active, MC4R antagonist -11 and HDAC3 inhib 2.
C[C@@H]1CN([C@@H](C)CO)C(=O)c2cc(-c3cccc(F)c3)cnc2O[C@@H]1CN(C)Cc1cccnc1 was read as Yeast UUG start -5.
O=S(=O)(O)c1cccc2cccc(Nc3ccccc3)c12 was read as Yeast UUG start -3, ALR H2O2 inh 99*, MC4R barr agon 0, MC4R antagonist 16 and HDAC3 inhib -52.
For c1ccc(Nc2cccc3c(Nc4ccccc4)cccc23)cc1 the results were Yeast UUG start 1, MC4R barr agon 2, MC4R antagonist 7 and HDAC3 inhib -18.
O=C(NCC[C@H]1CC[C@H](NC(=O)C2CCCCC2)[C@H](CO)O1)c1ccc(F)cc1 was read as Yeast UUG start 2.
Screening Cc1[nH]c2ccc(C(=O)N3CCCCC3)cc2c1C returned Yeast UUG start -22, ALR H2O2 inh 96*, MC4R barr agon -2, NALP1 yeast inh -5, MC4R antagonist 16 and HDAC3 inhib -1.
For Cc1[nH]c2ccc(C(=O)N3CCCC3)cc2c1C the results were Yeast UUG start -34, ALR H2O2 inh 90*, MC4R barr agon -2, NALP1 yeast inh 28, MC4R antagonist -6 and HDAC3 inhib 8.
For CCOC(=O)c1ccc2[nH]c(C)c(C)c2c1 the results were Yeast UUG start -10, ALR H2O2 inh 98*, MC4R barr agon -2, MC4R antagonist -1 and HDAC3 inhib -2.
Screening Cc1[nH]c2ccc(C(=O)N3CCC(C(N)=O)CC3)cc2c1C returned Yeast UUG start -3, ALR H2O2 inh inconclusive, MC4R barr agon -1, MC4R antagonist -9 and HDAC3 inhib -6.
Screening C/C=C/c1cnc2c(c1)C(=O)N([C@@H](C)CO)C[C@@H](C)[C@H](CN(C)S(=O)(=O)c1ccccc1F)O2 returned Yeast UUG start 12.
`O=S(=O)(N[C@@H]1CC[C@H](CCn2cc(-c3ccccn3)nn2)O[C@@H]1CO)c1cccc(F)c1` gave Yeast UUG start 3.
For Cc1nc(SCc2ccc(Cl)c(Cl)c2)ncc1C(=O)O the results were ALR H2O2 inh 97*, MC4R barr agon 8, NALP1 yeast inh 0, MC4R antagonist 5 and HDAC3 inhib 1.
C[C@@H]1CN([C@H](C)CO)S(=O)(=O)c2ccc(C3=CCCC3)cc2O[C@H]1CN(C)C(=O)C1CCC1 was read as Yeast UUG start -3.
For Oc1ccc(Cl)cc1C1=Nc2ccccc2N=C(c2ccco2)C1 the results were Yeast UUG start -29, ALR H2O2 inh 11, MC4R barr agon 9.0*, NALP1 yeast inh 8, MC4R antagonist 6 and HDAC3 inhib 2.
Screening C/C(=N\NC(=O)c1ccc(N/N=C(\C)c2ccncc2)cc1)c1ccncc1 returned ALR H2O2 inh 98*, MC4R barr agon -1, NALP1 yeast inh 8, MC4R antagonist -6 and HDAC3 inhib -2.
C/C(=N/NC(=O)c1ccncc1)c1ccccc1 was read as Yeast UUG start -2, ALR H2O2 inh -9, MC4R barr agon -1, NALP1 yeast inh 23, MC4R antagonist 2 and HDAC3 inhib 1.
C/C(=N\NC(=O)c1ccncc1)c1ccc(N(C)C)cc1 was read as ALR H2O2 inh 91*, MC4R barr agon -1, NALP1 yeast inh 4, MC4R antagonist 2 and HDAC3 inhib 14.
Cc1ccc(S(=O)(=O)Nc2cccc3c2O[C@@H](CN(C)CC2CC2)[C@H](C)CN([C@@H](C)CO)C3=O)cc1 was read as Yeast UUG start -7.
Screening CC(C)[C@H](N)c1nnc(SCc2ccc(Cl)cc2)o1 returned Yeast UUG start -5, ALR H2O2 inh -1, MC4R barr agon -1, NALP1 yeast inh 13, MC4R antagonist -4 and HDAC3 inhib -4.
Screening CCC(C)[C@H](N)c1nnc(SCC(=O)c2ccc(Cl)cc2)o1 (stereo partly specified) returned Yeast UUG start -15, ALR H2O2 inh 98*, MC4R barr agon -1, NALP1 yeast inh 4, MC4R antagonist -1 and HDAC3 inhib 0.
`CCOC(=O)COc1c(Cl)cc(/C=C2\N=C(C)OC2=O)cc1OC` gave Yeast UUG start -6, ALR H2O2 inh -12, MC4R barr agon -2, MC4R antagonist 7 and HDAC3 inhib 66*.
C=CCOc1ccc(/C=C2\N=C(C)OC2=O)cc1OC was read as ALR H2O2 inh -4, MC4R barr agon -2, MC4R antagonist 14 and HDAC3 inhib inconclusive.
Screening Cc1ccccc1C(=O)Nc1ccccc1NC(=O)c1ccccc1Br returned Yeast UUG start -8, ALR H2O2 inh -4, MC4R barr agon 1, NALP1 yeast inh 7, MC4R antagonist 21 and HDAC3 inhib -5.
For COc1ccc(Nc2ccccc2NC(=O)c2ccccc2Br)cc1 the results were Yeast UUG start 6, ALR H2O2 inh 82*, MC4R barr agon -1, NALP1 yeast inh -1, MC4R antagonist 1 and HDAC3 inhib 2.
`Nc1ccc(Nc2ccccc2N)cc1` gave ALR H2O2 inh -20, MC4R barr agon 0, NALP1 yeast inh 17, MC4R antagonist -4 and HDAC3 inhib -14.
Screening COc1ccc(Nc2ccccc2N)cc1 returned ALR H2O2 inh 98*, MC4R barr agon 0, NALP1 yeast inh -6, MC4R antagonist -6 and HDAC3 inhib 7.
`Cc1ccccc1-c1cnc2c(c1)C(=O)N([C@H](C)CO)C[C@@H](C)[C@@H](CN(C)C(=O)c1ccncc1)O2` gave Yeast UUG start -1.

Ordered by count of non-hydrogen atoms (ascending): some entries from above
For NC(=Nc1ccc(N)cc1)C(N)=Nc1ccc(N)cc1 the results were ALR H2O2 inh 99*, MC4R barr agon 0, NALP1 yeast inh 6, MC4R antagonist 1 and HDAC3 inhib 2.
Screening Cc1[nH]c2ccc(C(=O)N3CCC(C(N)=O)CC3)cc2c1C returned Yeast UUG start -3, ALR H2O2 inh inconclusive, MC4R barr agon -1, MC4R antagonist -9 and HDAC3 inhib -6.
Screening Cc1ccccc1C(=O)Nc1ccccc1NC(=O)c1ccccc1Br returned Yeast UUG start -8, ALR H2O2 inh -4, MC4R barr agon 1, NALP1 yeast inh 7, MC4R antagonist 21 and HDAC3 inhib -5.
C[C@@H]1CN([C@H](C)CO)S(=O)(=O)c2ccc(C3=CCCC3)cc2O[C@H]1CN(C)C(=O)C1CCC1 was read as Yeast UUG start -3.
